Data from publication PMC8886048, “The Non-phosphorylating Glyceraldehyde-3-Phosphate Dehydrogenase GapN Is a Potential New Drug Target in Streptococcus pyogenes” (Frontiers in Microbiology, 2022).

Tested on: NADP
Assay: purified protein, by the assay type
Settings: other: Strep-tagged GapN; ± standard error printed (0.05 NADP; 0.19 DL-G3P)

Which Km does the source give for “S. pyogenes GapN (Streptococcus pyogenes serotype M1)” here?
Its Km is 360 µM.
